## scFv variants of Ab-14 (heavy chain) against a SARS-CoV-2 spike peptide

The measurements come from Engelhart et al. 2022 (doi:10.1038/s41597-022-01779-4) through the FLAb antibody collection.

All variants were tested on one target, the spike HR2 peptide PDVDLGDISGINAS (SARS-CoV-2).

Parent scFv Ab-14: VH joined to VL by a 15-residue (Gly4Ser)3 linker. Changes lie in the heavy chain CDRs alone.
VH: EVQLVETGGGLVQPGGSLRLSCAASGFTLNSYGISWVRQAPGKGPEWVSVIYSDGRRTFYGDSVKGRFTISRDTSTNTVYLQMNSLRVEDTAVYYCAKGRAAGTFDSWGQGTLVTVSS
VL: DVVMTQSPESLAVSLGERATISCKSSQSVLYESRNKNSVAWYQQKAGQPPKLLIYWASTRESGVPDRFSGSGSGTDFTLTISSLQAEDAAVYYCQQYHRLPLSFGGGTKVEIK

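The parent was found by panning a naive human phage display library on the peptide. Variants in AAYL49 differ from the parent at up to three CDR positions; double and triple changes were sampled at random. The assay is AlphaSeq: two haploid yeast populations carry antibody and antigen on their surface. Mating (16 h, 30 °C) was followed by selection of diploids and sequencing of their barcodes. Scores were corrected for input abundance and mapped to Kd with protein pairs of known affinity run in the same pool. The assay was run in three technical replicates.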

The parent's heavy chain CDRs are GFTLNSYGIS, VIYSDGRRTFYGDSVK, GRAAGTFDS; each variant's own CDRs replace them letter for letter.
The Kd shown is the geometric mean over detected replicates; a lower Kd is a better binder.
"not detected" marks a missing value. The strain was present, yet no cells mated with the target were sequenced in any replicate, which points to weak or no binding.

| # | CDR-H1 | CDR-H2 | CDR-H3 | apparent Kd | seen in |
|---|---|---|---|---|---|
| 1 | GGTLNSWGIS | VIYSDGQRTFYGDSVK | GRAAGTFDS | 3.3 µM | 1/3 |
| 2 | GFTLNSQGIS | VIYSPGRRTFYGDSVK | GRAAGCFDS | 33 µM | 2/3 |
| 3 | GFELNSYGIS | VIYSDGGRTFYGDSVK | GRAAGTFDS | 17 nM | 3/3 |
| 4 | GFTLNSYGIS | VIYSIGRRTFYGDSHK | GRAAGDFDS | not detected | 0/3 |
| 5 | GFTLRSYWIS | VIYSDGRRTFYGDSVK | GRDAGTFDS | 8.7 µM | 1/3 |
| 6 | GFTLNSYGIS | VIYSDGRRTFLGDHVK | GRAAGTFDD | 27 µM | 2/3 |
| 7 | GFTLNSAGIS | VIYSDGRRTFYGDSVK | GREWGTFDS | not detected | 0/3 |
| 8 | GFTLNSYGIS | VIYSDGRRTFYGASVK | GWAAGTFDS | 11 µM | 1/3 |
| 9 | GMTLNSYGIS | VIYSDGRRTFYGDSVR | GRATGTFDS | 47 nM | 3/3 |
| 10 | GFDLNSYGIS | VSYSDGRRTFYGDSVK | GRAAGTFDS | not detected | 0/3 |
| 11 | GFTLNSYGID | VIYSQGRRTFYGDSVK | DRAAGTFDS | not detected | 0/3 |
| 12 | IFTLNSYGIS | VIYSDGARTFYGDSVY | GRAAGTFDS | not detected | 0/3 |
| 13 | GFTLNRYGIS | VIYSDGRRTFYGDSVK | YRFAGTFDS | 18 µM | 2/3 |
| 14 | GFTLNSYGIP | VIESDGRRTFYGDRVK | GRAAGTFDS | 110 µM | 2/3 |
| 15 | GFTHNSYGIS | VIYSDGRRTFYGDSVK | GSAAGTFDS | 6.5 µM | 1/3 |
| 16 | GFPLNKYGIS | VIYSDGERTFYGDSVK | GRAAGTFDS | 2.6 nM | 3/3 |
| 17 | GFTLNSYGIG | VIYSDGRRTFDGDSVK | VRAAGTFDS | not detected | 0/3 |
| 18 | GFILNSYGIS | VIYSDGRRTFYGDSVK | GRAAGTFQS | 81 nM | 3/3 |
| 19 | GFTLNSYGIS | VIYSDGNRTFYGDSVK | GRYAMTFDS | not detected | 0/3 |
| 20 | GFTLNSYGIS | VIYSDGRRTFYGDSMK | GRQAGTFAS | not detected | 0/3 |
| 21 | GFTLNSSGIS | VIYSDGRRTFYGDIVK | ARAAGTFDS | not detected | 0/3 |
| 22 | GFTLNSYGGS | VIYSHGRRTFYGDSVK | GRANGTFDS | 34 µM | 2/3 |
| 23 | GFRLNSYGIS | VIYSDGRRTFYGDSVK | GRAEGTFDS | 780 nM | 3/3 |
| 24 | GFTLNSYGIS | VYYTDGERTFYGDSVK | GRAAGTFDS | not detected | 0/3 |
| 25 | GKTDNSYGIS | VIYSDGRRTFYGDSVK | GWAAGTFDS | not detected | 0/3 |
| 26 | GFTLNSYGIS | VIYSFHRRTFRGDSVK | GRAAGTFDS | not detected | 0/3 |
| 27 | GFTLNSYGIS | VIYSTGRRTFYGDLVK | GRAAGRFDS | not detected | 0/3 |
| 28 | GFTLNSYGIS | VIYSDGCRDFYGDSVK | GRAAGTFMS | not detected | 0/3 |
| 29 | GFTLNSYGNS | VIYSDGRRTFYGDSVK | GRAAVTFYS | not detected | 0/3 |
| 30 | HFTLNSYGIS | VIMSDGRRTFYGDSVK | GRLAGTFDS | not detected | 0/3 |
| 31 | GFTLNSYGIS | VIYSDLRRTFYRDSVW | GRAAGTFDS | not detected | 0/3 |
| 32 | GFTLNSYGII | EIYSDGRRIFYGDSVK | GRAAGTFDS | 13 µM | 1/3 |
| 33 | GFTLNSYGIS | VIYSDGRETFYGDSVK | ARAAGSFDS | 22 µM | 2/3 |
| 34 | GFTLNSYGIS | VIYSDGRRTNYGDSVK | GRADGEFDS | 46 µM | 1/3 |
| 35 | GFTLYSYGTS | VILSDGRRTFYGDSVK | GRAAGTFDS | not detected | 0/3 |
| 36 | GFTRNSYGIS | VIYSDGRRTFYGDSVK | ARAAGTWDS | 2.8 µM | 2/3 |
| 37 | GYTLNSYGIV | VIYSDGRRTFNGDSVK | GRAAGTFDS | not detected | 0/3 |
| 38 | GFDLNSYGIS | VIGDDGRRTFYGDSVK | GRAAGTFDS | 5.0 µM | 2/3 |
| 39 | GFTLCSYGIS | VILSDGRRTFYGDSEK | GRAAGTFDS | not detected | 0/3 |
| 40 | CFTLNSYGPS | VIYSDGRRTFYGDSVN | GRAAGTFDS | not detected | 0/3 |
| 41 | GFTLNSYGIS | NIYYDGRRTFYGDSVK | GRAAGTFLS | not detected | 0/3 |
| 42 | GFTCNSYGIS | VIYEDGRRTFYGDSVK | GRAWGTFDS | 8.8 µM | 2/3 |
| 43 | GFTLTSYVIS | VIYSDGRRTFYVDSVK | GRAAGTFDS | not detected | 0/3 |
| 44 | GFTLNSYGIS | VIYSTGRRTFYGDSVK | GYAAGWFDS | not detected | 0/3 |
| 45 | GFTLNSYGIS | VIYSDGRRTTYGDQVK | GRAAQTFDS | 220 nM | 2/3 |
| 46 | GFTLNSYGIS | VSYSEGRRTFYGDSVK | GRAAKTFDS | not detected | 0/3 |
| 47 | PFTLNSSGIS | VIYSDGRRTFYGDSVK | IRAAGTFDS | not detected | 0/3 |
| 48 | GFTLNSHGIS | VIYSNGRRTFYGDSVK | GREAGTFDS | 4.0 µM | 3/3 |
| 49 | GTTMNSYGIS | VIYSKGRRTFYGDSVK | GRAAGTFDS | not detected | 0/3 |
| 50 | GFTLNSYGIS | VRYCDGRRTFYGDSVK | KRAAGTFDS | 2.2 µM | 1/3 |
| 51 | GFTLNSYGIS | VIYEDGRYTFYGDSVK | GLAAGTFDS | 8.2 µM | 1/3 |
| 52 | GRTLNSYGIS | VIYRDGRRTFYGDSVR | GRAAGTFDS | 12 µM | 1/3 |
| 53 | GFTLNSYGIS | VIYSVGRRTFYGDSVK | GRHAGTFDS | not detected | 0/3 |
| 54 | GFTLNDYDIS | VIESDGRRTFYGDSVK | GRAAGTFDS | 15 µM | 1/3 |
| 55 | GFTNNSYGIS | VIYSDGYRTFYGDSVK | GRAAGTSDS | 570 nM | 1/3 |
| 56 | GFTLNSYGIS | YIYSDGRRTFYGDTVK | GRAAGTFFS | 10 µM | 1/3 |
| 57 | GFTMNSYGIS | VIYSYGRRTFYGDSVK | GRAAGTFHS | not detected | 0/3 |
| 58 | GFTLNSYGIS | VIYSDGNRTFYGDAVK | GRAAWTFDS | 54 µM | 1/3 |
| 59 | GFTLNSYGIS | VIYSDGRRTFYLDSVK | PRAAGTFDS | not detected | 0/3 |
| 60 | GFTLNSYGIP | VIYSDGRRTFYGDEVE | GRAAGTFDS | not detected | 0/3 |
| 61 | GFTVNSYGIS | VIYSDWTRTFYGDSVK | GRAAGTFDS | 240 µM | 3/3 |
| 62 | GFTLNSYGIS | VIYSDGRRTFHGDSCK | QRAAGTFDS | not detected | 0/3 |
| 63 | GFTLNSYGIS | VIYIDGRRTFLGDSVK | GRAAGTFDS | 45 µM | 1/3 |
| 64 | GFTLNSYGIS | VIYSDGRCTFYADSVK | GRAAGYFDS | 43 µM | 3/3 |
| 65 | RFTYNSYGIS | VIYSDGRRTFYGDSMK | GRAAGTFDS | 180 µM | 2/3 |
| 66 | GFTLNVYGIS | VIYSGGRRTFYGDSVK | GRAAGTFDP | not detected | 0/3 |
| 67 | GFTLNSYGIS | VIYSDGRRKFYGDSVK | GYAIGTFDS | 1.8 µM | 2/3 |
| 68 | GDTLNSTGIS | VIYCDGRRTFYGDSVK | GRAAGTFDS | 350 µM | 2/3 |

Excerpt, the final 6 entries:

| CDR-H1 | CDR-H2 | CDR-H3 | apparent Kd | seen in |
|---|---|---|---|---|
| GFTLNSYGIS | VIYIDGRRTFLGDSVK | GRAAGTFDS | 45 µM | 1/3 |
| GFTLNSYGIS | VIYSDGRCTFYADSVK | GRAAGYFDS | 43 µM | 3/3 |
| RFTYNSYGIS | VIYSDGRRTFYGDSMK | GRAAGTFDS | 180 µM | 2/3 |
| GFTLNVYGIS | VIYSGGRRTFYGDSVK | GRAAGTFDP | not detected | 0/3 |
| GFTLNSYGIS | VIYSDGRRKFYGDSVK | GYAIGTFDS | 1.8 µM | 2/3 |
| GDTLNSTGIS | VIYCDGRRTFYGDSVK | GRAAGTFDS | 350 µM | 2/3 |

Nonspecific signal, from three strains lacking the peptide, appeared in 15% of pairings of library AAYL49, centred on 11 µM (5% of these signals below 680 nM); values are not corrected for it.
For reference, the parent read 4.4 nM as the reference entry and 13 µM (one replicate of three) as a member of this library.